System: YAC-1 cells
Assay: 4 h 51Chromium release assay of mouse NK cells cultured with monocytes ± LPS against YAC-1
Format: cell-based
Settings: IL-2-treated WT NK cells + monocytes from Cox-2flox/flox;LysMCre/+ mice; LPS 20 ng/mL
Method: IL-2-treated (1×10^4 U/million) NK cells obtained from wild type mice were cultured with monocytes from wild type mice or Cox-2flox/flox;LysMCre/+ mice for 7 days and then treated with or without LPS (20 ng/mL) for an additional day. Afterward, NK cells were used as effector cells in a standard 4 h ^51Chromium release assay against YAC-1 cells. […] NK cells were treated as described in (FIG. 4A) and afterward the supernatant was removed from the co-cultures and the levels of IFN-γ secretion were determined using specific ELISAs. *P<0.05 was obtained for differences in secretion of IFN-γ between untreated and LPS-treated NK cells cultured with monocytes from control littermates or those from Cox-2flox/flox;LysMCre/+ mice (FIG. 4B). NK cells were prepared as described in (FIG. 4A) and used as effector cells against DCs derived from monocytes from either wild type or Cox-2flox/flox; LysMCre/+ mice in a standard 4 h ^51Chromium release assay. […] One of several representative experiments is shown in this figure.
Purified NK cells obtained from control WT littermates were treated with IL-2 and cultured in the presence of autologous monocytes or those obtained from Cox-2flox/flox; LysMCre/+ mice in the absence and presence of LPS before they were used in a standard ^51Cr release assay against YAC-1 tumors. […]

Lipopolysaccharide [LPS]
NK cell-mediated cytotoxicity against YAC-1 cells: completely abolished

Reference: US20240226255A9, “COMPOSITIONS AND METHODS FOR ACTIVATING NK CELLS” (The Regents of the University of California, priority 2021, published 2024)
